Data taken from patent US20080125475A1 (priority 2006, published 2008).

Assays:
Sprague-Dawley rats = conditions: rat, in vivo
rats = conditions: rat, in vivo
rat = conditions: in vivo

SMILES: CN1CC[C@]23c4c5ccc(O)c4O[C@H]2[C@@H](O)C=C[C@H]3[C@H]1C5 [Compound B3, morphine]
- course of antihyperalgesic and antinociceptive action over the investigation period (Sprague-Dawley rats): slightly declining antihyperalgesic action and an unchanging antinociceptive action; also recorded: slight decline in the antihyperalgesic action or a constant antinociceptive action
- efficacy once neuropathy has developed compared with naive/sham operated animals (rats): efficacy of morphine declines; also recorded: comparatively distinctly less

SMILES: CC(C)C[C@H](CN)CC(=O)O [pregabalin]
- separation of anti-hyperalgesic and antinociceptive action (rat): anti-hyperalgesic action is first to be observed in a dose range in which an antinociceptive action also emerges in the control group; also recorded: efficacy against diabetic polyneuropathy pain only in a dose range in which an antinociceptive effect is also to be observed

Entries after “also recorded” stand apart in the source; their conditions may differ.
